Test results reported in publication PMC10033409, “Autoregulation of GPCR signalling through the third intracellular loop” (Nature, 2023).

Columns and labels:
[1] = test system: β2AR; assay: cAMP accumulation (cAMP-Glo), β2AR; settings: β2AR ∆ICL3
[2] = test system: PTH1R–Gs peptide; assay: PTH1R-luciferase complementation reporter assay, Gs peptide; type: biochemical, human; settings: PTH1R construct named by the receptor or protein whose sequence replaces ICL3 (WT = wild-type); X axis of Figure 5G
Procedure: For PTH1R luciferase complementation reporter assays, cells were seeded the day prior to transfection at 25-30% confluence on 12-well plates. For each transfection, 0.5 μg DNA, 1.5 μl X-tremeGENE HP, and 100 μl Opti-MEM were combined, incubated for 15-20 min, and added to seeded wells. For each mutant, PTH1R-Gs peptide, PTH1R-Gq peptide and PTH1R-(no peptide) constructs were transfected in parallel. Spep and Qpep constructs were transfected 24 h prior to collection, and no-peptide constructs were transfected 18 h before collection. […] The cell mixture was centrifuged (3 min, 300g) and the media was aspirated. Cell pellet was resuspended in 1 ml PBS and centrifuged again as above. […] Cellular debris was removed by centrifugation (1,000g for 1 min). To collect additional vesicles, debris was resuspended in 0.3 ml PBS, briefly vortexed, and centrifuged again (1,000g for 1 min). […] Vesicle samples were collected in a 96-well clear bottom plate and assayed for TagRFP fluorescence (Tecan Spark, excitation 521 nm, emission 585 nm, gain 150). […] The plate was tapped 2-3 times to mix, and the kinetic read was resumed. […] The maximum luminescence value that appeared stable over time was used for further analysis. Specific Spep and Qpep signals were calculated by subtracting the control value from the Spep value and the Qpep value for a given experiment.

Specific Peptide Signal, Gs (Average) [2]	Compound	cAMP (Isoproterenol/Forskolin Maximum), Average ([1]; isoproterenol 1 pM)	cAMP (Isoproterenol/Forskolin Maximum), Average ([1]; isoproterenol 10 pM)	cAMP (Isoproterenol/Forskolin Maximum), Average ([1]; isoproterenol 50 pM)	cAMP (Isoproterenol/Forskolin Maximum), Average ([1]; isoproterenol 100 pM)	cAMP (Isoproterenol/Forskolin Maximum), Average ([1]; isoproterenol 250 pM)	cAMP (Isoproterenol/Forskolin Maximum), Average ([1]; isoproterenol 500 pM)	cAMP (Isoproterenol/Forskolin Maximum), Average ([1]; isoproterenol 1e-9 M)	cAMP (Isoproterenol/Forskolin Maximum), Average ([1]; isoproterenol 2.5e-9 M)	cAMP (Isoproterenol/Forskolin Maximum), Average ([1]; isoproterenol 1.25e-8 M)	cAMP (Isoproterenol/Forskolin Maximum), Average ([1]; isoproterenol 1e-7 M)	cAMP (Isoproterenol/Forskolin Maximum), Average ([1]; isoproterenol 1e-5 M)	cAMP (Isoproterenol/Forskolin Maximum), Average ([1]; isoproterenol 100 fM)
–	CC(C)NCC(O)c1ccc(O)c(O)c1 (stereo not drawn) [Isoproterenol, isoproterenol (+)-bitartrate salt]	0.11	0.0218	0.0339	0.22	0.26	0.29	0.40	0.51	0.61	0.62	0.77	0.09
0.38	MDM2	–	–	–	–	–	–	–	–	–	–	–	–

Structures can show the parent of a compound that is named as a salt.
